US11149018B2, “Substituted N-arylethyl-2-aminoquinoline-4-carboxamides and use thereof” (Bayer Aktiengesellschaft, priority 2017, dated 2021)
Like-named read-outs stand apart in the source and are kept apart here.

Amino acid sequences for entries named in this document (tags omitted). A change or cut given only in a name is not applied to a line headed by its entry.
UniProt P43088: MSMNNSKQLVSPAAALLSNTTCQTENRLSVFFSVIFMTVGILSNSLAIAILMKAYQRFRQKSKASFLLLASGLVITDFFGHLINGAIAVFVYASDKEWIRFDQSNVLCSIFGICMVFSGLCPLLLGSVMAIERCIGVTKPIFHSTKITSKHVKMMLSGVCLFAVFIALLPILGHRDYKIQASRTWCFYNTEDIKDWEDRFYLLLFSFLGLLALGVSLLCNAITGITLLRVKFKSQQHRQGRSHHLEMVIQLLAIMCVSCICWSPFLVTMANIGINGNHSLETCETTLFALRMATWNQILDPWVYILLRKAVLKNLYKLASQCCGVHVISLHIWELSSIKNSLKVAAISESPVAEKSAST

Target: FP receptor (Homo sapiens (Human), UniProt P43088)
Assay: In vitro test of inhibition of human FP receptor activity (PGF2α-induced calcium flux in FP-expressing CHEM1 cells)
Format: cell-based
Protocol: B-1. In Vitro Test of Inhibition of Human FP Receptor Activity
For the characterization of test substances in respect of FP antagonism, PGF2α-induced calcium flux in FP-expressing CHEM1 cells (Millipore, HTS093C) was used.
10 μl of the prediluted substance solution are added to the Fluo-8-laden cells and incubated at 37° C., 5% CO2 for 10 minutes. The FP receptor is activated by adding 40 μl of 2 nM (final concentration) PGF2α in calcium-free Tyrode, 2 mM CaCl2, 0.002% SmartBlock, and the calcium flux is determined by measuring the fluorescence at ex. 470 nm/[…].
Table 1 below lists the IC50 values from this assay for individual working examples of the invention (some as mean values from multiple independent individual determinations): […]

[1] = PGF2α 2 nM, calcium flux, CHEM1 cells, some mean values of multiple determinations

Row | IC50 [1] [nM] | IC50 [nM] | Compound
1 | 3.1 |  | Cc1c(N2CCCCCC2)nc2ccc(Br)cc2c1C(=O)NCC(CCC(=O)O)c1c(F)ccc(F)c1Cl (racemic) [Example 159, (+/−)-5-({[2-(Azepan-1-yl)-6-bromo-3-methylquinolin-4-yl]carbonyl}amino)-4-(2-chloro-3,6-difluorophenyl)pentanoic acid]
2 |  | 0.73 | (−)-5-[({6-Bromo-3-methyl-2-[(^2H10)piperidin-1-yl]quinolin-4-yl}carbonyl)amino]-4-(2-chloro-3,6-difluorophenyl)pentanoic acid [Example 274]
3 | 3.1 |  | Cc1c(N2CCCC(F)(F)C2)nc2ccc(Br)cc2c1C(=O)NCC(CCC(=O)O)c1ccccc1OC(F)(F)F (racemic) [Example 132, (+/−)-5-({[6-Bromo-2-(3,3-difluoropiperidin-1-yl)-3-methylquinolin-4-yl]carbonyl}amino)-4-[2-(trifluoromethoxy)phenyl]pentanoic acid]
4 | 3.1 |  | Cc1c(N2CCCCC2)nc2ccc(Br)cc2c1C(=O)NCC(CCC(=O)O)c1c(F)cccc1F (single isomer, unassigned; (-)) [Example 246, (−)-5-({[6-Bromo-3-methyl-2-(piperidin-1-yl)quinolin-4-yl]carbonyl}amino)-4-(2,6-difluorophenyl)pentanoic acid]
5 |  | 3.1 | (−)-5-[({6-Bromo-3-methyl-2-[(^2H10)piperidin-1-yl]quinolin-4-yl}carbonyl)amino]-4-(2-chlorophenyl)pentanoic acid [Example 268]
